Assay [1] deals with T1, CA IX (Homo sapiens, UniProt Q16790). Particulars: cited from earlier work.
Assay [2] deals with T1, CA IX. In words: biochemical.

Each structure is given as a SMILES string. Where two headings read alike, the source gives them in different places.

This is an account of results in publication PMC6151961 (Journal of Enzyme Inhibition and Medicinal Chemistry, 2018).

Consider `CC(=O)OC[C@@H]1O[C@@H](O[C@H]2[C@@H](OC(C)=O)[C@H](OC(C)=O)[C@@H](NC(=S)NCc3ccc(S(N)(=O)=O)cc3)O[C@@H]2COC(C)=O)[C@@H](OC(C)=O)[C@@H](OC(C)=O)[C@H]1OC(C)=O` [B0143], for which, at CA IX [1], the Ki was 0.0073 µM.

Take `Cc1cc(=O)oc2cc(O[C@H]3OC[C@@H](O)[C@@H](O)[C@@H]3O)ccc12` [B0791]: the Ki on CA IX [2] and on CA IX [1] was 3.2 µM each time.
